Reference: patent US5250538A, “Indole derivatives and their use” (Novo Nordisk A/S, priority 1990, dated 1993)
pIC50: −log10 of the molar value.

The chains behind the UniProt entries cited, without tags or fusion partners.
UniProt P28564, whole entry: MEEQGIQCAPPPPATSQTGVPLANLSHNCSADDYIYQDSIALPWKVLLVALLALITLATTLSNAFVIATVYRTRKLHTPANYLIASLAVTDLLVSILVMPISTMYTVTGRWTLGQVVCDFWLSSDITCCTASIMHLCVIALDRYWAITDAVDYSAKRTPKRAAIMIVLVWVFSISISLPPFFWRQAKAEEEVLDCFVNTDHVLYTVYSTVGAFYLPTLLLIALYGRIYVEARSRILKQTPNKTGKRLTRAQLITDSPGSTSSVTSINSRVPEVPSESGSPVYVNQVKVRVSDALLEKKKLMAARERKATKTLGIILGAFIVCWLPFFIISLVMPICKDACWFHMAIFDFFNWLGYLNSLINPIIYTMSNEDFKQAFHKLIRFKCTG

Target: T1, 5-HT1B (Rattus norvegicus, UniProt P28564)
T1 construct: from tissue
Experiment: 5-HT1B receptor binding in vitro (3H-5-HT, 50 nM 8-OH-DPAT included)
Method: Compounds of the general formula (I) were tested for binding to 5-HT receptors and compared with known ligands by the following procedure:
Rat brain tissue (as specified in the table hereinafter) was homogenized using a Polytron homogenizer. The final pellet was resuspended in 125 vol (tissue wet weight) of buffer.
In all assays incubation was carried out for 10 min at 37° C.
Labelling of the 5-HT1B receptor was complicated by the fact that the available ligand ^3 H-5-HT is nonselective.
Detailed conditions for the receptor binding assay in vitro are tabulated below.

Structure (SMILES): CCCN(CCC)C1CCc2cccc(O)c2C1 (stereo not shown) [Example 8-OH-DPAT, 8-hydroxy-2-(di-n-propylamino)tetralin, reference compound]
- pIC50: < 6.00
